{"source": "paper PMC8837702", "about": "(Archives of toxicology, 2021)", "test_system": "CHO cells expressing human NAT1 and CYP1A1", "conditions": "0-150 μM for 24 hr"}
{"substance": "9,10-dihydro-9,10-dioxo-1,2-anthracenediyl diethyl ester [Compound 10]", "values": [{"measurement": "ABP-induced DNA double strand breaks", "setting": "then 800 μM ABP for 24 hr", "value": "concentration-dependent reductions"}, {"measurement": "BNA-induced DNA double strand breaks", "setting": "then 800 μM BNA for 24 hr", "value": "concentration-dependent reductions"}]}
